Biological target: T1, human glucagon receptor (Homo sapiens, UniProt P47871)
T1 construct: expressed in transfected cells; host or cells: HEK-293
Assay: cAMP response (HTRF) of HEK-293 cells stably expressing human glucagon receptor
Format: cell-based
Conditions: Table 9 comparison testing; read-out: EC50 hGlucagon-R
Protocol: cAMP content of cells was determined using a kit from Cisbio Corp. (cat. no. 62AM4PEJ) based on HTRF (Homogenous Time Resolved Fluorescence). For preparation, cells were split into T175 culture flasks and grown overnight to near confluency in medium (DMEM/10% FBS). Medium was then removed and cells washed with PBS lacking calcium and magnesium, followed by proteinase treatment with accutase (Sigma-Aldrich cat. no. A6964). Detached cells were washed and resuspended in assay buffer (1×HBSS; 20 mM HEPES, 0.1% BSA, 2 mM IBMX) and cellular density determined. They were then diluted to 400000 cells/ml and 25 μl-aliquots dispensed into the wells of 96-well plates. For measurement, 25 μl of test compound in assay buffer was added to the wells, followed by incubation for 30 minutes at room temperature.
Potencies of peptidic compounds at the GLP-1, glucagon and GIP receptors were determined by exposing cells expressing human glucagon receptor (hGlucagon R), human GIP receptor (hGIP-R) or human GLP-1 receptor (hGLP-1 R) to the listed compounds at increasing concentrations and measuring the formed cAMP as described in Methods.

By UniProt entry, the sequences of proteins in these tests, tags left out. Residues count along the entry.
UniProt P47871, 26-477: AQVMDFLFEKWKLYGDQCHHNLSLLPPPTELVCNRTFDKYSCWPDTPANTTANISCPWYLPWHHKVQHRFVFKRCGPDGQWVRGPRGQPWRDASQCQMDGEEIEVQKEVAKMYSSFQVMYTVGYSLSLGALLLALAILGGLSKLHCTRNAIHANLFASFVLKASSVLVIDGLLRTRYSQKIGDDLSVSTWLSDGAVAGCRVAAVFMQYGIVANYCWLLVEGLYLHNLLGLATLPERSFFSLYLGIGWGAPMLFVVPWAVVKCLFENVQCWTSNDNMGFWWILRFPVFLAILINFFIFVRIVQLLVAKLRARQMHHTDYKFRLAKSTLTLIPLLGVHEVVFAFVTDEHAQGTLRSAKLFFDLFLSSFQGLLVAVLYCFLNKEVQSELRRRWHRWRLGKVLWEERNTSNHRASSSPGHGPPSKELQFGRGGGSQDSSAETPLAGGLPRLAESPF

For `CCCCCCCCCCCCCCCCCC(=O)N[C@@H](CCC(=O)NCCCC[C@H](NC(=O)[C@H](CCC(N)=O)NC(=O)[C@H](CCCCN)NC(=O)[C@H](CO)NC(=O)[C@H](CC(C)C)NC(=O)[C@H](CC(=O)O)NC(=O)[C@H](CO)NC(=O)[C@@H](NC(=O)[C@H](Cc1ccccc1)NC(=O)[C@@H](NC(=O)CNC(=O)[C@H](CCC(N)=O)NC(=O)C(C)(C)NC(=O)[C@@H](N)Cc1c[nH]cn1)[C@@H](C)O)[C@@H](C)O)C(=O)N[C@@H](CC(=O)O)C(=O)N[C@@H](CCC(=O)O)C(=O)N[C@@H](CCC(N)=O)C(=O)N[C@@H](CCCNC(=N)N)C(=O)N[C@@H](C)C(=O)N[C@@H](CCCCN)C(=O)N[C@@H](CCC(=O)O)C(=O)N[C@@H](Cc1ccccc1)C(=O)N[C@H](C(=O)N[C@@H](CCC(=O)O)C(=O)N[C@@H](Cc1c[nH]c2ccccc12)C(=O)N[C@@H](CC(C)C)C(=O)N[C@@H](CCCCN)C(=O)N[C@@H](C)C(=O)NCC(=O)NCC(=O)N1CCC[C@H]1C(=O)N[C@@H](CO)C(=O)N[C@@H](CO)C(=O)NCC(=O)N[C@@H](C)C(=O)N1CCC[C@H]1C(=O)N1CCC[C@H]1C(=O)N1CCC[C@H]1C(=O)N[C@@H](CO)C(N)=O)[C@@H](C)CC)C(=O)O` [SEQ ID NO: 28, H-Aib-Q-G-T-F-T-S-D-L-S-K-Q-K[gGlu-Stea]-DEQRAKEFIEWLKAGGPSSGAPPPS-NH2, reference compound], which EC50 is on record?
Its EC50 is 1.9 pM.
